# Patent publication US20240131204A1, “Fractionated Dosing of a Phospholipid Ether Analog for the Treatment of Cancer” (Cellectar Biosciences, Inc., priority 2019, published 2024)
# Experiment: Clinical trial: single bolus dose (Cohort 4) versus fractionated dose (Cohort 5)
# Assay type: in vivo, human
# Settings: Cohort 4, single bolus 31.25 mCi/m^2
# Method: Dosing is based upon body surface area or BSA in millicuries/meter squared (mCi/m^2). Patients either received a single 30 minute infusion of 31.25 mCi/m^2 on day 1 or a 30 minute fractionated infusion dose of 15.625 mCi/m^2 on day 1 and then repeated on day 8.
substance,measurement,value
^131I-labeled 18-(p-iodo-phenyl)octadecyl phosphocholine [CLR 131],Adverse Events Average Grade,3.23 ± 0.93
same,Adverse Events Median Grade,3.0
